Chains of the proteins cited; added tags and fusions are not shown.
UniProt Q9Y5Y9, whole entry: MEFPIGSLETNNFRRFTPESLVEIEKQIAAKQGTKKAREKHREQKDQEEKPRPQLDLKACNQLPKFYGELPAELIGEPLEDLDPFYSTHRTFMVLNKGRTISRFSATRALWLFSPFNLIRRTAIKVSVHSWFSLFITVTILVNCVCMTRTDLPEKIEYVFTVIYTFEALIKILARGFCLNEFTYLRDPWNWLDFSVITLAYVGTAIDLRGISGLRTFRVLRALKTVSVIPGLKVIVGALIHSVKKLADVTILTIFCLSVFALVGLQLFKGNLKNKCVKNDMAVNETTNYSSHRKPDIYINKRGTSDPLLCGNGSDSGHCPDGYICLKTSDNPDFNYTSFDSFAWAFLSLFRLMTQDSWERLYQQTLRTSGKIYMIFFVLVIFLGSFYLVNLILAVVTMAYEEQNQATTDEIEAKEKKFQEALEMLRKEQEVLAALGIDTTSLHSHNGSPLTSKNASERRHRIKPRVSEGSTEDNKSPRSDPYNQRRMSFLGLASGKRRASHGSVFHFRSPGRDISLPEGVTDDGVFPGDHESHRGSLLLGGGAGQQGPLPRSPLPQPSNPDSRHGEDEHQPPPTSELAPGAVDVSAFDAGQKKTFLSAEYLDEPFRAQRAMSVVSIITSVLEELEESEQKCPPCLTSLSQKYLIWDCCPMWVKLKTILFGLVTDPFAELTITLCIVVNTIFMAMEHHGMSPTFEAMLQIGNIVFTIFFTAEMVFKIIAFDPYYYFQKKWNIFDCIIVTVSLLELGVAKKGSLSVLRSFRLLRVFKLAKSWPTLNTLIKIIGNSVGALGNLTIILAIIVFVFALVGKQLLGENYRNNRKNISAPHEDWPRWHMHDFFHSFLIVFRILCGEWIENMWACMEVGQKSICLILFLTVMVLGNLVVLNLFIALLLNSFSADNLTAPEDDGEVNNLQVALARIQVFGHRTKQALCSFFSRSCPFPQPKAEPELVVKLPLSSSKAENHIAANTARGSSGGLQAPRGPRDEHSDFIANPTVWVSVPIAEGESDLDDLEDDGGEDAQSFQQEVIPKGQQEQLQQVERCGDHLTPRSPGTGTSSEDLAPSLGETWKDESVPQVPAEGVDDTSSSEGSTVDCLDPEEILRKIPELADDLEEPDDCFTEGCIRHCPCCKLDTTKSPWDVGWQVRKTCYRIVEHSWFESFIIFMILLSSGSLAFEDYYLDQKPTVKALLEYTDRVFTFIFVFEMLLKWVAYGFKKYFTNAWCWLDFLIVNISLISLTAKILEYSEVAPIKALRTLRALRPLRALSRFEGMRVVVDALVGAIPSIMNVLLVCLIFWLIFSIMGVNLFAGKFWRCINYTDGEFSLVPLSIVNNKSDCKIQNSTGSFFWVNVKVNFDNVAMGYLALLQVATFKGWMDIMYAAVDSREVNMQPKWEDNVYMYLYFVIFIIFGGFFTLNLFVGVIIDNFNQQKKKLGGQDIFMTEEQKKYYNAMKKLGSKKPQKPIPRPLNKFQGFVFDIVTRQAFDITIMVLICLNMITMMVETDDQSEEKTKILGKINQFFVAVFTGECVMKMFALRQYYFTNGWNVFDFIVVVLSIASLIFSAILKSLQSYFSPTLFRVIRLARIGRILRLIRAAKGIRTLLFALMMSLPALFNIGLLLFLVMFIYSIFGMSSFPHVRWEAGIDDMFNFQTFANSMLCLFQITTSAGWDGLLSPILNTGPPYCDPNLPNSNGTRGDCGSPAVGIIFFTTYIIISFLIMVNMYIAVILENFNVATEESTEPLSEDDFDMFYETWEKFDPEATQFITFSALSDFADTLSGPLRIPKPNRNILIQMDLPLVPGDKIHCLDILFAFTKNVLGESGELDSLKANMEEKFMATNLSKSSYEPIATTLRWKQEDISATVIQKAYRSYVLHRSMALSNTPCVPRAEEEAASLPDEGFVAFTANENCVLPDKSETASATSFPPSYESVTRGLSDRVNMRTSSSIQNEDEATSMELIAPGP

In BindingDB's records for patent US20250115578 (Chengdu Kanghong Pharmaceutical, 2025):

Key:
[1] = molecular target: T1, Sodium channel protein type 10 subunit alpha (Homo sapiens, UniProt Q9Y5Y9); experiment: Electrophysiological Assay
Experimental: A capillary glass pipette (BF150-86-10, Sutter Instruments) was pulled into a recording electrode with a micropipette puller (P97, Sutter Instruments). The micromanipulator (MP285, Sutter Instruments) was manipulated under an inverted microscope (IX71, Olympus) to make the recording electrode contact the cell and negative pressure suction was applied to achieve a GQ seal. Then, rapid capacitance compensation was performed, and negative pressure was continued, cell membrane was broken by suction, and whole cell recording mode was formed. Then the slow capacitance was compensated and the membrane capacitance and series resistance were recorded without leakage compensation. When the whole cell recording current was stabilized, dosing was initiated, and the next concentration was detected after acting 5 minutes of each drug concentration. Multiple cells were independently repeated during the recording period. […] Specifically, 6 concentrations (measuring IC50) or 2 concentrations (preliminary screening) were set for each compound, and the percentage of inhibition of sodium channels was determined by calculating the relative percentage of peak current generated before and after each concentration compound treated cells, and the IC50 value or percentage of inhibition at a specific concentration was calculated using IGOR pro software.

[2] = molecular target: T1, Sodium channel protein type 10 subunit alpha; experiment: Electrophysiological Assay; remark: listed apart in the source
Experimental: Clamped the cell at −80 mV and then depolarized to 10 mV with a square wave lasting 10 ms to get the Nav1.8 current (see FIG. 1 attached). This procedure was repeated every 5 seconds. The maximum current triggered by the square wave was detected, and when it stabilized, the test compounds were perfused, and when the reaction stabilized, the strength of the block was calculated.

Work on `Cc1cc(F)ccc1Oc1cc(C(F)(F)F)ccc1C(=O)Nc1cc[nH]c(=O)c1` [US20250115578, Example 32] yielded an IC50 [1] of 16 nM and an IC50 [2] of 35.1 nM.
